# AlphaSeq binding of Ab-14 light chain variants to a spike HR2 peptide

Antigen: PDVDLGDISGINAS, a 14-residue peptide of the SARS-CoV-2 spike HR2 region.

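Phage display of a naive human antibody library on the peptide gave the parent. This is the validation round: designs drawn from the data on random variants, tested in the same kind of assay. Their group label is 14L_En_HC (En: ensemble of fine-tuned language models; HC: hill climbing; a sequence that several methods proposed may carry one label only). Affinity was read by AlphaSeq, a pooled yeast mating assay with surface-displayed partners. Pairs that bind mate more often; barcode pairs of the diploids are counted by sequencing. A regression on co-assayed BCL2-family reference pairs converts the normalised counts of each replicate to an apparent Kd. Mating was done six times.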

Ab-14 is the parent antibody, in scFv form: VH, then a 15-residue (Gly4Ser)3 linker, then VL. The heavy chain is unchanged in all variants.
VH: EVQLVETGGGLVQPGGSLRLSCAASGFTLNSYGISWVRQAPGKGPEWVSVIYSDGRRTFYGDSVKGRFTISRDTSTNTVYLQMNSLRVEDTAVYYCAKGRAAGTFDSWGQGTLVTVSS
VL: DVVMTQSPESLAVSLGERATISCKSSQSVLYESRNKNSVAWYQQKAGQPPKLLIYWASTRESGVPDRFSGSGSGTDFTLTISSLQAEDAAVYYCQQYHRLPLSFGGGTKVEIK

Each variant is given by its three light chain CDRs, as the data file delimits them; those of the parent are KSSQSVLYESRNKNSVA, WASTRES, QQYHRLPLS. Affinities are written as log10 Kd with Kd in nM; a lower number is a better binder. Replicates are averaged; those with no signal do not enter the mean. "nd" means that the variant was in the library but no mating with the target was seen in that replicate; the authors take this as a sign of poor binding, and no number exists. The range of this assay differs from that of the first round, and the authors advise against merging the two. The authors' rule: three or more of the six replicates give a measured affinity, fewer mean a poor binder. Of ten entries with the parent sequence, four were seen in most replicates (averages 0.34 to 2.37), three in one and three in none, so single entries are noisy. Empty control strains, which show no peptide, gave a signal in 4% of pairings with all light chain designs; the median was 2.64 and 95% of these signals were weaker than 1.59. No background was subtracted. The control count says in how many pairings with the empty strains this scFv gave a signal, with their mean in brackets.

| CDR-L1 | CDR-L2 | CDR-L3 | log10 Kd (nM) by replicate | mean log10 Kd (nM) | empty controls |
|---|---|---|---|---|---|
| KLYQMMGYLSRNKNSIA | DMSRREN | QQYHRLPLS | 0.55 0.44 0.38 0.35 0.49 0.42 | 0.44 | 1 of 18 (3.29) |
| KISGYLNKESKNTNSVA | EMVNRES | QQYDRLPLS | nd 2.04 1.28 nd nd 1.65 | 1.65 | 0 of 18 |
| MVGQGLMGESRAKNSIA | HASLRFD | QQYHRLPLI | 1.22 1.98 2.31 2.31 1.92 2.17 | 1.98 | 2 of 18 (3.06) |
| IISQVDAYESRNKNSIA | DQSTRGQ | QQYDRLPLS | 1.18 1.16 1.58 1.56 1.01 2.04 | 1.42 | 0 of 18 |
| KLRMLTLTGGYFKNSVA | QASTREN | QSYHRLPLS | 1.51 1.98 1.47 2.20 3.21 1.63 | 2.00 | 1 of 18 (1.85) |
| KISMLQRYENQNKNSIA | EMSRREN | QQYHRLPLS | 0.54 0.74 0.67 0.63 0.59 0.59 | 0.63 | 0 of 18 |
| IISFVDAYESRNKNSIA | DQSTRGS | QQYDRLPLS | 1.30 1.26 1.05 1.62 1.18 1.30 | 1.29 | 0 of 18 |
| TISQSTYWESRNKNSVA | QTETREE | QDYDRLPLS | 2.59 2.14 nd 2.56 1.47 1.93 | 2.14 | 0 of 18 |
| KLSFMSSYLSVNKNSVA | EMTTREN | QQYDRLPLS | 1.27 2.07 1.76 1.03 2.28 1.14 | 1.59 | 0 of 18 |
| HISESMYYQSRNKNNIA | EMTTRER | QHYHRLPLS | 0.69 0.92 1.09 0.63 0.75 0.65 | 0.79 | 0 of 18 |
| TLGQVTMQLSRDKNSVA | DASTSED | QQYDRLPLS | 0.97 1.13 0.43 0.52 0.81 0.62 | 0.75 | 1 of 18 (1.88) |
| KLGDMVHTLSRNKNSIA | DMRTRES | QQYMRLPLS | 0.07 0.40 -0.11 0.14 -0.04 -0.28 | 0.03 | 0 of 18 |
| IISGSMLMESRKKNSVA | NAETREY | QHYDRLPLS | 2.04 2.08 1.56 1.84 2.74 2.79 | 2.18 | 2 of 18 (2.41) |
| KIYAATMLESHDKNSIA | DLTNRGN | QQYHRLPLS | 1.58 1.55 2.17 2.07 1.50 1.39 | 1.71 | 0 of 18 |
| MISQLFMYGTRNYNSIA | QASTREK | QQYDRLPLE | 0.81 1.30 1.60 1.91 1.54 2.93 | 1.68 | 0 of 18 |
| HISMSVGMTSFQKNSVA | ENSTREN | QQYDRLPLS | 1.26 1.69 2.32 1.79 1.69 1.84 | 1.77 | 0 of 18 |
| ALGDVTRMESNKKNSIA | DMSTREA | QQYHRLPLS | 0.18 -0.09 0.31 -0.02 0.30 0.39 | 0.18 | 1 of 18 (2.20) |
| TVSQVHDMLSRNKNSVA | DMNTRES | QQYDRLPLS | 0.20 0.01 -0.09 -0.11 -0.19 0.28 | 0.02 | 0 of 18 |
| NFSQMVLTGSTLRNSVA | HAQTREE | QQYHRLPLI | 0.81 1.02 1.16 0.93 1.32 1.03 | 1.04 | 0 of 18 |
| KLRMLTLTGGYFKNSVA | QAETREN | QSYHRLPLS | 2.47 1.66 1.49 1.31 1.36 1.42 | 1.62 | 0 of 18 |
| TVSQVHDMLSRNKNSVA | DENTRES | QQYDRLPLS | 0.63 1.24 0.79 1.31 1.64 0.83 | 1.07 | 1 of 18 (2.56) |
| MLMQVGGYESNNKNSIA | DLRTRES | QQYHRLPLS | 2.55 1.96 0.56 1.15 1.64 0.88 | 1.46 | 0 of 18 |
| KLSQLFYKESINKNNVA | EMTTRMS | QQYDRLPLS | -0.08 -0.15 -0.09 0.34 -0.07 0.23 | 0.03 | 0 of 18 |
| KISGQYRYESLSKNSIA | EAQTRLK | QQYHRLPLS | 0.28 0.21 0.38 0.22 0.32 0.79 | 0.37 | 3 of 18 (2.74) |
| KLSISMLHQSINKHSVA | EVRTRES | QQYDRLPLS | 1.20 1.32 1.90 0.52 1.63 1.15 | 1.29 | 0 of 18 |
| TISDLIMVASRNKNSVA | DESTRPD | QQYHRLPLS | 0.61 1.78 2.32 0.66 0.24 0.82 | 1.07 | 1 of 18 (1.57) |
| KISQMVTYESTWHNAIA | QTSEREQ | QQYHRLPFS | nd nd nd nd nd nd | nd | 0 of 18 |
| KLYQSTAMTSRMKNNVA | DLNERER | QQYFRLPLS | 0.40 0.19 0.11 0.18 -0.03 0.41 | 0.21 | 0 of 18 |
| ILSQSVLMGMHLKNSVA | QASTRFE | QQYHRLPLM | 0.53 0.46 0.55 0.72 0.97 0.77 | 0.67 | 0 of 18 |
| NLSISMLHESINKHNVA | EVRTREK | QQYDRLPLS | 1.14 0.81 0.38 0.41 0.71 1.06 | 0.75 | 1 of 18 (3.44) |
| KLGGVTEYEMRNKNSVA | QMTTREE | QQYHRLPLS | 0.25 0.02 -0.07 -0.13 0.00 0.13 | 0.03 | 3 of 18 (3.33) |
| KISQNMGETQRNKNSVA | EVSMVPS | QQYWRLPLS | 0.93 1.24 1.47 1.07 1.25 1.61 | 1.26 | 1 of 18 (2.41) |
| KLGSSTRFESSNKAAIA | DNSTRES | QQYHRLPLS | 1.33 1.11 1.41 0.78 0.74 1.19 | 1.09 | 1 of 18 (2.56) |
| TISQMFHGESRNRNSVA | QASTRES | QSYDRLPLS | 0.89 0.52 0.93 0.60 0.45 0.90 | 0.71 | 0 of 18 |
| KLMQMTGIESHNKNSLA | DANRRES | QQYHRLPLS | 0.51 0.62 0.25 0.31 0.30 0.58 | 0.43 | 1 of 18 (4.06) |
| TISQSFMMENQFKNSVA | QASTRES | QCYDRLPLS | 1.92 1.22 1.58 1.85 2.22 1.92 | 1.79 | 2 of 18 (3.48) |
| KLSATYRFESQQKNNIA | EMTTRES | QCYHRLPLS | 1.44 1.53 1.05 1.97 1.42 2.28 | 1.62 | 1 of 18 (2.47) |
| KLPQSTMQESVSKNSVA | ELSTRGQ | QQYHRLPLS | 0.61 0.61 0.56 0.58 0.44 0.63 | 0.57 | 0 of 18 |

Extract of 4 entries:

CDR-L1	CDR-L2	CDR-L3	log10 Kd (nM) by replicate	mean log10 Kd (nM)	empty controls
KLRMLTLTGGYFKNSVA	QASTREN	QSYHRLPLS	1.51 1.98 1.47 2.20 3.21 1.63	2.00	1 of 18 (1.85)
IISFVDAYESRNKNSIA	DQSTRGS	QQYDRLPLS	1.30 1.26 1.05 1.62 1.18 1.30	1.29	0 of 18
KISQNMGETQRNKNSVA	EVSMVPS	QQYWRLPLS	0.93 1.24 1.47 1.07 1.25 1.61	1.26	1 of 18 (2.41)
TISQSFMMENQFKNSVA	QASTRES	QCYDRLPLS	1.92 1.22 1.58 1.85 2.22 1.92	1.79	2 of 18 (3.48)

Source: Li et al. 2023 (doi:10.1038/s41467-023-39022-2), MIT Lincoln Laboratory and A-Alpha Bio; data file from the FLAb repository.